Literature values in US4452985A, “2-Guanyl-4-(substituted phenyl) thiazole derivatives” (American Home Products Corporation, priority 1983, dated 1984).

System: H2 histamine receptors
Conditions: cited from earlier work

CNC(=C[N+](=O)[O-])NCCSCc1ccc(CN(C)C)o1 [ranitidine]
H2 antagonist activity relative to cimetidine (in words): greater activity than cimetidine
